Assay results published in ChEMBL document CHEMBL4665792, “Design and SAR of Withangulatin A Analogues that Act as Covalent TrxR Inhibitors through the Michael Addition Reaction Showing Potential in Cancer Treatment” (J Med Chem, 2020).

Species on record: Homo sapiens
Conditions: time min <=30

Structure (SMILES): CC(=O)O[C@H]1C=C([C@H](C)[C@H]2CC(C)=C(C)C(=O)O2)[C@@]2(C)CC[C@H]3[C@@H](C[C@H]4O[C@]45[C@@H](O)C=CC(=O)[C@]35C)[C@]12O
- Kinact: 0.0367 min⁻¹

Structure (SMILES): CC(=O)O[C@H]1C=C([C@H](C)[C@H]2CC(C)=C(C)C(=O)O2)[C@@]2(C)CC[C@H]3[C@@H](C[C@H]4O[C@]45[C@@H](OC(=O)/C=C/C(=O)N(C)C)C=CC(=O)[C@]35C)[C@]12O
- Kinact: 0.0237 min⁻¹
